Measured values: patent US20240400571A1, “5,6 UNSATURATED BICYCLIC HETEROCYLES USEFUL AS INHIBITORS OF NOD-LIKE RECEPTOR PROTEIN 3” (Merck Sharp & Dohme LLC, priority 2023, published 2024)

Chains of the proteins cited; added tags and fusions are not shown.
UniProt Q96P20, whole entry: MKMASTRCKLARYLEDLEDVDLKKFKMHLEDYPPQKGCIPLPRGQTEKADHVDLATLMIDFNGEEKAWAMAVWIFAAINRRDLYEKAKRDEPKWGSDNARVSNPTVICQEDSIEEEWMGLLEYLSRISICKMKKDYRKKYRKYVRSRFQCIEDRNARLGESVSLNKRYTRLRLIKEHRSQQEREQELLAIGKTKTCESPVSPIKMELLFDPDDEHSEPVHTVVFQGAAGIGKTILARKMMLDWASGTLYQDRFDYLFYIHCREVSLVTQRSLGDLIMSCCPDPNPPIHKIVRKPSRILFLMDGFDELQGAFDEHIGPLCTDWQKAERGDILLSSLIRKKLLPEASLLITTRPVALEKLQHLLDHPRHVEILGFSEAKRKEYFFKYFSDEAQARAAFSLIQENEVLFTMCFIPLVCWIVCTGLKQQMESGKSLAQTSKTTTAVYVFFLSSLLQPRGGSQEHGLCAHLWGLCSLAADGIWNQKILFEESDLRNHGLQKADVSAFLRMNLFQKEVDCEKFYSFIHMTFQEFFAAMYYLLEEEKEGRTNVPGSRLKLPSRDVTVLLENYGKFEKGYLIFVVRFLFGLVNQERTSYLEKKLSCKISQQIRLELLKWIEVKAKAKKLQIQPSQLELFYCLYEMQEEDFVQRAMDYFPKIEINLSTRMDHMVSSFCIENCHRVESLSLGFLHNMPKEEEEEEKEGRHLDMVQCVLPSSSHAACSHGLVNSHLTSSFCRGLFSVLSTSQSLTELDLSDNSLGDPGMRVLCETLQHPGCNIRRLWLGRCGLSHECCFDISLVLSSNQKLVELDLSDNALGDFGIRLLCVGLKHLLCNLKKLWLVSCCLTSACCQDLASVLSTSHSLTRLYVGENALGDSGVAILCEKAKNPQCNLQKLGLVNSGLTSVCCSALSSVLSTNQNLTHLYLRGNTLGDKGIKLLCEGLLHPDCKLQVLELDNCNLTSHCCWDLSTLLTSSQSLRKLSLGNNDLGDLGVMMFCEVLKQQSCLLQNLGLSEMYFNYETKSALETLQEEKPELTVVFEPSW

Molecular target: NLRP3 inflammasome (Homo sapiens, UniProt Q96P20)
Assay: ASC-SPECK formation in THP-1 cells after gramicidin stimulation (NLRP3 inflammasome activation)
Conditions: read-out: EC50 values (nM) for Examples that inhibit NLRP3 inflammasome activation; PMA-treated human monocytic THP-1 cells; compound 1 h before 12.5 μg/ml gramicidin, 3-hour treatment; ASC SPECK imaging
Method: The ability of compounds to inhibit NLRP3 inflammasome activation was determined in vitro by monitoring formation of the ASC-SPECK in human monocytic THP-1 cells after stimulation. THP-1 cells (ATCC catalog #TIB-202) were maintained in complete growth media containing Roswell Park Memorial Institute RPMI (ATCC catalog #30-2001), 10% heat inactivated fetal bovine serum, 1× penicillin/streptomycin and 0.05 mM 2-mercaptoethanol. At the start of the assay, undifferentiated THP-1 cells were plated at a density of 20,000 cells per well in a 384-well plate (Poly-D-lysine coated Cell Carrier Ultra microplate, Perkin Elmer catalog #6057500) in complete growth media supplemented with 10 ng/ml phorbol 12-myristate 13-acetate (PMA; Sigma catalog #P8139), and then incubated overnight. The next day, media was replaced with assay media [RPMI (Gibco catalog #11875-093), 0.01% bovine serum albumin (BSA)]. […]
Immunofluorescence staining: Anti-ASC antibody (MBL catalog #D086-3) was desalted and labeled with Alexa 488 antibody labeling kit (Thermo catalog #A20181) prior to use as described below. […] The number of DRAQ5 positive cells containing ASC SPECKS were quantified in each well.
Data analysis: EC50 values were calculated by standard curve-fitting analysis using an internally developed program in TIBCO Spotfire software.

Question: With `CCN1CCC[C@@H](n2ccc3c(C)c(-c4ccc(C(F)(F)F)cc4O)nnc32)C1` as the compound, how does the EC50 read?
Answer: The EC50 was 35 nM.
